These are literature values, as cited in PMC6282790, “Incorporating physiologically relevant mobile phases in micellar liquid chromatography for the prediction of human intestinal absorption” (Biomedical Chromatography, 2018).

On the set-up of the data set: method as in https://pubchem.ncbi.nlm.nih.gov/, December 2014; unit not given beside the values. To be noted: literature values; ref https://pubchem.ncbi.nlm.nih.gov/, December 2014.

nicotinic acid: the PSA was 50.2.
